{"sequences": {"note": "Amino acid sequences for entries named in this document (tags omitted).", "UniProt Q92731, whole entry": "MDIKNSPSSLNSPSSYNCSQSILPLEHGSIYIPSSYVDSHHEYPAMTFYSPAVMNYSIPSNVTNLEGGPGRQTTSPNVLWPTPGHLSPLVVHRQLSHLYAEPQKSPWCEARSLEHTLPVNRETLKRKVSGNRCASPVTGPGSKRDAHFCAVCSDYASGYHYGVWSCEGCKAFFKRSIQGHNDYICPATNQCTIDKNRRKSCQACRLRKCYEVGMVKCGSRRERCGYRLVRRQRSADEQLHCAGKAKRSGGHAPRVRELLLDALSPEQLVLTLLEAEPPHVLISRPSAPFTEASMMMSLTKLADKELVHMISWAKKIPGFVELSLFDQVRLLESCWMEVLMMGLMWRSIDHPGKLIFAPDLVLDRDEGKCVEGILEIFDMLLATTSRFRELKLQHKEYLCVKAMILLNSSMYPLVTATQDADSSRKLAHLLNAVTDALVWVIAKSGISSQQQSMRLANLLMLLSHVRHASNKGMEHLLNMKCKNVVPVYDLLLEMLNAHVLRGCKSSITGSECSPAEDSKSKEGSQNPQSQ"}, "source": "patent US20150031655A1", "about": "“COMBINATION OF LIVER X RECEPTOR MODULATOR AND ESTROGEN RECEPTOR MODULATOR FOR THE TREATMENT OF AGE-RELATED DISEASES” (UNIVERSITY OF NORTH DAKOTA, priority 2011, published 2015)", "target": "T1, ERβ (Homo sapiens, UniProt Q92731)", "T1 construct": "endogenous in cells; host or cells: SH-SY5Y human neuroblastoma cells", "assay": "ChIP, ERβ binding to the ERE half site in the TH promoter", "type": "cell-based", "conditions": "SH-SY5Y", "procedure": "ChIP analysis was performed to evaluate the extent of ERα/ERβ and LXRα/LXRβ binding to the DNA elements in the TH promoter and α-synuclein promoter regions respectively using “SimpleChIP™ Enzymatic Chromatic IP kit” from Cell Signaling (Boston, Mass.).\nBriefly, cells from each treatment group (3×10^6 cells) were washed with PBS, trypsinized, centrifuged at 5000 g. The pellet containing the cells was further washed with PBS and cross-linked using 37% formaldehyde for 15 min followed by the addition of glycine solution to cease the cross-linking reaction.\nThe cells were washed with 4× volumes of 1×PBS and centrifuged at ˜220 g for 5 min. […]\nThe crude DNA extract was eluted and then washed several times with wash buffer containing ethanol (provided with the kit) followed by purification with the use of DNA spin columns provided by the manufacturer. […] The DNA fragment size was determined by electrophoresis on a 1.2% agarose FlashGel^R system (Lonza, Rockland, Me.).\nThe relative abundance of the ERα or ERβ antibody precipitated chromatin containing the ERE in the TH promoter region and LXRα or LXRβ antibody precipitated chromatin containing the LXRE in the α-synuclein promoter region was determined by qPCR using an iQ SYBR Green Supermix kit following the manufacturer's instructions (BioRad, Hercules, Calif.) and sequence specific primers (See Table 1 above). […]"}
{"molecule": "C[C@]12CC[C@@H]3c4ccc(O)cc4CC[C@H]3[C@@H]1CC[C@@H]2O", "note": "[estradiol, 17β-estradiol]", "values": [{"measurement": "ERβ binding to the ERE on the TH promoter", "setting": "concomitant to 27-OHC treatment", "value": "increases"}, {"measurement": "increase in ERβ binding to the ERE half-site on the TH promoter", "setting": "treatment alone vs control", "value": 4.5, "unit": "fold"}]}
